IC50 data for three compounds are collected here from PMC6882492, “Synthesis and biological evaluation of novel thienopyrimidine derivatives as diacylglycerol acyltransferase 1 (DGAT-1) inhibitors” (Journal of Enzyme Inhibition and Medicinal Chemistry, 2019).

The chains behind the UniProt entries cited, without tags or fusion partners.
UniProt O75907, whole entry: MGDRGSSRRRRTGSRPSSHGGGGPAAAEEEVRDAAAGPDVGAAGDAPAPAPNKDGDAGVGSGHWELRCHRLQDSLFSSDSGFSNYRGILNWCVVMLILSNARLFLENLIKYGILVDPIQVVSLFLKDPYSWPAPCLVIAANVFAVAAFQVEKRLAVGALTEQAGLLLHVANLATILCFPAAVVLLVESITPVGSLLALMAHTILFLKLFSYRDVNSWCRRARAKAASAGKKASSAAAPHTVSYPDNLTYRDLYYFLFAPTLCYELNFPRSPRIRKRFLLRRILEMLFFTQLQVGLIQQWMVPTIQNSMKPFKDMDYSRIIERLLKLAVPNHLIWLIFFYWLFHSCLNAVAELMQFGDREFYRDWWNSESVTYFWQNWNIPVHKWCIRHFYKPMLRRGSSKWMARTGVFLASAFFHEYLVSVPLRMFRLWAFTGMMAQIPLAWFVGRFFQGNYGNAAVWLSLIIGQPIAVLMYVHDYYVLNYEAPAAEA

Where only a bound is given, the exact number is not on record here.

The assay has as its target human recombinant DGAT1 enzyme expressed in insect cells (SF9 cells) (Homo sapiens, UniProt O75907). Kind of assay: DGAT-1 inhibition assay (IC50), SF9 microsomes. The conditions noted are these: read-out: IC50 DGAT-1 (SF9); SF9 insect cells expressing human DGAT-1; summary of Table 1. On the procedure:
The activity of DGAT-1 inhibitors in vitro was evaluated by using a human recombinant DGAT1 enzyme expressed in insect cells (SF9 cells). SF9 cells were homogenised by washing them with DPBS (Dulbecco’s phosphate-buffered saline) and then suspending cell pellets with a tris buffer (250 mM sucrose; 10 mM Tris-HCl [pH 7.4]; proteinase inhibitor). The resulting mixture was centrifugally separated at 10,000 × g for 30 min to remove the cell debris remaining in the lower layer thereof, and was centrifugally separated at 100,000 × g for 60 min to obtain a microsomal membrane. Further, membrane fractions were resuspended by the tris buffer, and then stored at -80 °C.
The activity of DGAT1 was measured according to the reported method. Specifically, 0.0001 – 10 μΜ (final concentration, FC) of the test compounds were cultured at room temperature (25 °C) for 15 min with a […] of SF9 microsomal protein solution and 100 mM of MgCl2 solution, and were then further cultured at room temperature (25 °C) for 30 min after the addition of 100 μΜ (FC in 12.5% EtOH) of 1,2-dioleyl-sn-glycerol and 30 μΜ (final conc.) of [14]C-oleyl coenzyme A. The reaction was completed by the addition of 300 μL of a mixed solution of 2-propanol/heptane (7:1), and radioactive triglyceride was separated from an organic solvent layer by using 200 μL of heptane and 200 μL of a 0.1 M carbonate buffer (pH 9.5). The amount of triglyceride was measured by liquid scintillography (Perkin Elmer, USA) after mixing with an organic solvent and an equivalent amount of scintillation solvent (MicroScint-O, Perkin Elmer, USA). The effects of inhibiting DGAT1 were calculated as percent in comparison with a control material.
The activities of synthesised compounds were evaluated using SF9 insect cells expressing human DGAT-1[22]. A potent DGAT-1 inhibitor, LCQ-908 (2 or pradigastat) was used as a positive control. […] The calculated lowest energy conformation model of 14c provided that the distance between the terminal carboxylic acid and NH of urea was over 16 Å, which may result in reduced activity. […]

What is called IC50 is the point on the concentration scale where inhibition reaches its midpoint. Consider `O=C(O)CC1CCC(c2csc3c(-c4ccc(NC(=O)c5ccc(C(F)(F)F)nc5)cc4)ncnc23)CC1` (stereo not drawn), for which the concentration for half-maximal inhibition (IC50) was over 1000 nM.

With `O=C(O)CC1CCC(c2csc3c(-c4ccc(NC(=O)Nc5cc(Cl)ccn5)cc4)ncnc23)CC1` (stereo not drawn), the IC50 was over 1000 nM.

For `O=C(O)CC1CCC(c2csc3c(-c4ccc(NC(=O)Nc5cncc(Br)c5)cc4)ncnc23)CC1` (stereo not drawn), the 50% inhibitory concentration (IC50) was over 1000 nM.
